Laboratory results reported in paper PMC5773532, “Crystal structure of an assembly intermediate of respiratory Complex II” (Nature Communications, 2018).

Molecular target: T1, Escherichia coli succinate:quinone oxidoreductase flavoprotein subunit SdhA (isolated subunit) (E. coli, UniProt P0AC41 1-588)
T1 construct: SdhA, flavoprotein subunit of E. coli succinate:quinone oxidoreductase (SdhABCD), isolated subunit; construct not described; also called SdhA subunit
T1 sequence (looked up): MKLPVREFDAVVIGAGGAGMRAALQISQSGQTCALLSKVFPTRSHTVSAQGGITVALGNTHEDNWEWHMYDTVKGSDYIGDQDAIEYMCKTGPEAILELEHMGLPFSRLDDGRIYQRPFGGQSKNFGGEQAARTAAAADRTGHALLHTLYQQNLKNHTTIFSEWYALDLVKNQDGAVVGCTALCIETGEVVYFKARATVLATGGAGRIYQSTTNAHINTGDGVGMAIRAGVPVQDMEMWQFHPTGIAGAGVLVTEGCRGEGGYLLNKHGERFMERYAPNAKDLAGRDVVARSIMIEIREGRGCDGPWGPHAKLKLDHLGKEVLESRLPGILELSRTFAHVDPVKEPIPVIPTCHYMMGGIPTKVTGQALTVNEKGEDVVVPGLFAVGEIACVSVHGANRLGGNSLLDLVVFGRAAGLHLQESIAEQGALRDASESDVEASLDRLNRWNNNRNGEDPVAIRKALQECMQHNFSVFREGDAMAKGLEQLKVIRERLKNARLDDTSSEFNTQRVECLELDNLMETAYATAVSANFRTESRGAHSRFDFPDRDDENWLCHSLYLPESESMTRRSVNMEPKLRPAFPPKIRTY
Assay: optical difference spectroscopy (FAD absorbance titration); isolated flavoprotein (7 to 9 µM) in the cuvette titrated with SdhE; 50 mM Bis-Tris-Propane pH 8.0, 25 °C; 387–458 nm; fit of absorbance change against total ligand concentration
Settings: both partners purified

B1: Escherichia coli SdhE assembly factor (natural protein, E. coli)
chain: MDINNKARIHWACRRGMRELDISIMPFFEHEYDSLSDDEKRIFIRLLECDDPDLFNWLMNHGKPADAELEMMVRLIQTRNRERGPVAI
notes: SdhE, FAD assembly factor of E. coli Complex II, as used in optical titrations and kinetics; construct not described
With B1 the Kd was 1500 ± 200 nM.
